Source: ChEMBL document CHEMBL1124737, “Synthesis and alpha 2-adrenoceptor effects of substituted catecholimidazoline and catecholimidazole analogues in human platelets” (J Med Chem, 1990)
The source made the active and inactive calls. No cut-off for these calls is given here.

Assays:
Homo sapiens [1] = organism: Homo sapiens
Homo sapiens [2] = organism: Homo sapiens; remark: listed apart in the source

Oc1ccc(CC2=NCCN2)cc1O
Log EC50 (Homo sapiens [1]): Not activity

Oc1ccc(C[C@H]2CNC=N2)cc1O
Log EC50 (Homo sapiens [1]): Not activity

Oc1cc(F)c(CC2=NCCN2)cc1O
Log EC50 (Homo sapiens [1]): inactive

Cl.Oc1ccc(Cc2ncc[nH]2)cc1O
Log EC50 (Homo sapiens [1]): inactive

Oc1ccc(CC2=NCCN2)c(F)c1O
Log EC50 (Homo sapiens [1]): inactive

Oc1ccc(CC2CNC=N2)cc1O (racemic)
Log EC50 (Homo sapiens [2]): Not activity

Oc1cc(CC2=NCCN2)cc(F)c1O
Log EC50 (Homo sapiens [1]): inactive
